The values below are quoted from earlier work in patent publication US20120329842A1 (priority 2010, published 2012).

The test system of the data set is other MBLs. The conditions noted are these: cited from earlier work.

Consider `O=C(O)c1cccc(C(=O)O)n1` [pyridine-2,6-dicarboxylic acid], for which the “activity against other MBLs” value was “not other MBLs”.
